Literature values in paper PMC6956362 (ACS Medicinal Chemistry Letters, 2019).

Sequences of proteins named here, by UniProt entry; tags and fusion partners are left off.
UniProt P30989, whole entry: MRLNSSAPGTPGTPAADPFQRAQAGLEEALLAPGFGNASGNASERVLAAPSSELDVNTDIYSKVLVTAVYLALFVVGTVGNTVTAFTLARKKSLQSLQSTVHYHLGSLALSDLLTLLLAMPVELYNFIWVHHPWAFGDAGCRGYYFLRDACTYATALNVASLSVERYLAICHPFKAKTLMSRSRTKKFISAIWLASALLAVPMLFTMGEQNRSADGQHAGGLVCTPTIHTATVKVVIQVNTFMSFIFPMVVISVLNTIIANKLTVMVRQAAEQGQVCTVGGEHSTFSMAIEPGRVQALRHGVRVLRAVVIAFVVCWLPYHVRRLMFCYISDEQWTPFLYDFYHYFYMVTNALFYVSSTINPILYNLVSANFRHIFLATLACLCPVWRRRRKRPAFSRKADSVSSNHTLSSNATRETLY

Target: NTS1R (Homo sapiens) (UniProt P30989)
Experiment: radioligand binding
Conditions: cited from earlier work

[3H]2 (radiolabeled neurotensin(8-13) derivative) 8-13 (from UniProt P30990)
Kd: 290 pM
